Legend:
[1] = target: 인간 TNFα (ACROBiosystems TNF-H5228) (human) (UniProt P01375); assay: cell-based or functional assay
[2] = target: 인간 OX40L 단백질 (OX40L-his; ACROBiosystems Cat# OXL-H52Q8) (human) (UniProt P23510); assay: cell-based or functional assay

IC50 (nM), TNFα blockade assay [1]	IC50 (nM), OX40L blockade assay [2]	Substance
0.054 nM	0.8 nM	이중 특이성 항체 TNFαi-I3F07 HC (bispecific antibody)
0.063 nM	–	reference 항 TNFα 항체 Ref. TNFαi (Humira VH/VL) (antibody)
0.057 nM	–	이중 특이성 항체 TNFαi-02C09 HC (bispecific antibody)

Reference: KR20220081857A
